Laboratory results from patent US20050070470A1 (ADMINISTRATORS OF THE TULANE EDUCATIONAL FUND, published 2005).

Chains of the proteins cited; added tags and fusions are not shown. Lines headed by an entry give the natural chain unless they say otherwise; changes in a name come on top.
UniProt P30680: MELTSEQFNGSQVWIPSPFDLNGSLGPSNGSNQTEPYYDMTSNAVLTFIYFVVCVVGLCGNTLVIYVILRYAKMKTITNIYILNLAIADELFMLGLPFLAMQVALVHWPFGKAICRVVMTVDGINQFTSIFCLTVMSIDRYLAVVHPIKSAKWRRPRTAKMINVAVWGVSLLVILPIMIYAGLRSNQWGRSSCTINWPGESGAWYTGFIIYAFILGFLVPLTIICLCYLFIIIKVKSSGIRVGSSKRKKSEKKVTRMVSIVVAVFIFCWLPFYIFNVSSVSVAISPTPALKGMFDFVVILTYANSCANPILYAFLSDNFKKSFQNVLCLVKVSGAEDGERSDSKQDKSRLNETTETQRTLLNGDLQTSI

Target: somatostatin subtype 2 rat receptor (rat, UniProt P30680 1-369)
Assay: cell-based or functional assay

IC50 (nM), inhibition of GH release from primary cultures of rat pituitary cells: 0.51 nM
B1: Succinate-D-Asp-D-Ser-D-Ser-D-Ser-D-Ser-D-Ser-D-Asp-D-Ser-D-Ser-D-Ser-D-Ser-D-Ser-L-Lys-D-Tyr-D-Tyr-cyclo[L-Cys-L-Phe-D-Trp-L-Lys-L-Thr-L-Cys]-L-Thr-NH2 (peptide)
peptide: DSSSSSDSSSSSKYYCFWKTCT
modifications: N-terminal succinate (succinoyl); D-Asp 1, D-Ser 2-6, D-Asp 7, D-Ser 8-12, D-Tyr 14, D-Tyr 15, D-Trp 18; cyclo (disulfide) Cys 16-Cys 21; C-terminal amide
